This is an account of results in patent US20240018161A1, “MODULATORS OF CYSTIC FIBROSIS TRANSMEMBRANE CONDUCTANCE REGULATOR” (VERTEX PHARMACEUTICALS INCORPORATED, priority 2020, published 2024).

The chains behind the UniProt entries cited, without tags or fusion partners. A line that says so, or that is headed by a name, gives the form on record, which may keep a tag or linker.
UniProt P13569, with tags, fused parts or gaps DEL508-508: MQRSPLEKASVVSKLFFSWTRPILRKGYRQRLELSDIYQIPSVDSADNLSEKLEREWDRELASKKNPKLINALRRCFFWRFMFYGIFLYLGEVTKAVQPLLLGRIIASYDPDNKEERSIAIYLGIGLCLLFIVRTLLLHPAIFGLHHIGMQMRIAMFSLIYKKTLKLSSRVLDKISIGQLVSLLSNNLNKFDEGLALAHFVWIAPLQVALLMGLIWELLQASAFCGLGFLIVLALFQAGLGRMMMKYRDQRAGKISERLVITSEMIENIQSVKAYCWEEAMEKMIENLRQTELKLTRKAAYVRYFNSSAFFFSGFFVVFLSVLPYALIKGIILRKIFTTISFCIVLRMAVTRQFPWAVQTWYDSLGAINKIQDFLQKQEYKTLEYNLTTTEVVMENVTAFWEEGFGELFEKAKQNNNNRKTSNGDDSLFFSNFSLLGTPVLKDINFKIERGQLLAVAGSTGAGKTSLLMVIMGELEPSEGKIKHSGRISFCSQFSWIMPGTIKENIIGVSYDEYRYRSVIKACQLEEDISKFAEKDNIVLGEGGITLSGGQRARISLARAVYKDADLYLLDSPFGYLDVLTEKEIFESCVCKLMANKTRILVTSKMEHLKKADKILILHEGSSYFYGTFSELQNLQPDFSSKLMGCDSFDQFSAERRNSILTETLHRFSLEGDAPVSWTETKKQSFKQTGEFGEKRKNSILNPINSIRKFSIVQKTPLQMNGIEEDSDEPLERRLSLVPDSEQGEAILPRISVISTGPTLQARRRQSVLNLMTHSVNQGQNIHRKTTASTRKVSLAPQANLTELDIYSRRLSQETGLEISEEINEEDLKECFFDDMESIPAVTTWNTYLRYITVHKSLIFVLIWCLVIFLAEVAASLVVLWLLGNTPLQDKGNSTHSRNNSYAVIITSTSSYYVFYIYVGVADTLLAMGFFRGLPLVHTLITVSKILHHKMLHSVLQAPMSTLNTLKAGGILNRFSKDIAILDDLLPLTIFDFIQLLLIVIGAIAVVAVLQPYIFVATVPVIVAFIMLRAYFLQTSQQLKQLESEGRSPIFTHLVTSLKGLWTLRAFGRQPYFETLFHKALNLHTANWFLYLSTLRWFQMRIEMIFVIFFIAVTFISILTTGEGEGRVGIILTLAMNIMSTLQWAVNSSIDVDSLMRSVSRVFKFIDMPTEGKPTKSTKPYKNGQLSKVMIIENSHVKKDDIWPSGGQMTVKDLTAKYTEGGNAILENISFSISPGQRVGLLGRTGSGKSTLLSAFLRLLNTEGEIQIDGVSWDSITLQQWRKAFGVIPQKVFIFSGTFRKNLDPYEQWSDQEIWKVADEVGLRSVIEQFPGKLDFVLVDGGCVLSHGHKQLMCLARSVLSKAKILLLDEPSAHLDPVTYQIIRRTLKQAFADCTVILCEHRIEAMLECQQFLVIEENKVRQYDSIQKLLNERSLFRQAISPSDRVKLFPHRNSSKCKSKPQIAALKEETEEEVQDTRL

The target in the experiment is CFTR-mediated chloride transport in human intestinal epithelial enteroid cells (Homo sapiens, UniProt P13569). The experiment is described as follows: Membrane potential dye, Enteroid Assay A. To be noted: for EC50: read-out: Ent. A EC50.

Read-outs that look alike come from different tables or passages of the source.

As for `Cc1ccccc1-c1cc2nc(n1)NS(=O)(=O)c1cccc(c1)C(=O)N1Cc3ccccc3[C@H](O2)[C@H]1CC(C)C`, under “Enteroid Assay A”, the “Ent. A Max Activity (%)” value is reported as “+++ (+++ is >600%)” and the EC50 (usually the concentration at which the effect is half-maximal) is under 1 µM.
With `Cc1cccc(C)c1-c1cc2nc(n1)NS(=O)(=O)c1cccc(c1)C(=O)N1Cc3ccccc3CC(C1)O2` (single isomer, unassigned) [Compound 217, 12-(2,6-dimethylphenyl)-15-oxa-8λ^6-thia-1,9,11,26-tetraazapentacyclo[14.8.1.13,7.110,14.018,23]heptacosa-3(27),4,6,10,12,14(26),18,20,22-nonaene-2,8,8-trione], the “Ent. A Max Activity (%)” value (percentage of chloride transport of triple combination control (3 μM N-[(6-amino-2-pyridyl)sulfonyl]-6-(3-fluoro-5-isobutoxy-phenyl)-2-[(4S)-2,2,4-trimethylpyrrolidin-1-yl]pyridine-3-carboxamide based)) is “++ (++ is 30-60%)”. Besides, for the setting “enteroid cells incubated with test compound 18-24 hours, acute 10 μM forskolin and 300 nM N-[2,4-bis(1,1-dimethylethyl)-5-hydroxyphenyl]-1,4-dihydro-4-oxoquinoline-3-carboxamide”, the EC50 was under 1 µM.
